Test results: patent US20190062383A1, “Kv1.3 Antagonists and Methods of Use” (published 2019)

Target: human Kv1.3 (human) (UniProt P22001)
Assay: cell-based or functional assay

## Negative control IgG4 Fc (from UniProt P01861 99-327)
  % T cell inhibition (IL-2) at 5 nM: 0%
